Target: Mu-type opioid receptor (Homo sapiens, UniProt P35372)
Experiment: Agonist activity at mu opioid receptor

`CO[C@@H]1CN(C[C@H]2Cc3ccc(Br)cc3C2)CC[C@H]1n1c(C(C)(C)O)nc2cc(C)ccc21` was tested, and the EC50 was 24.9 µM.
